AlphaSeq binding of Ab-95 light chain variants to a spike HR2 peptide

Source: Engelhart et al. 2022 (doi:10.1038/s41597-022-01779-4), MIT Lincoln Laboratory and A-Alpha Bio; data file from the FLAb repository.

Target: peptide PDVDLGDISGINAS, taken from heptad repeat 2 (HR2) of SARS-CoV-2 spike.

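The parent was found by panning a naive human phage display library on the peptide. The library (AAYL52) carries one to three amino acid substitutions per variant, with no insertions or deletions. The scFvs were displayed on barcoded MATa yeast, the peptide on MATalpha yeast. Binding brings cells together so that they mate, and sequencing counts the barcode pairs among the diploids. Each replicate has its own calibration line, from reference interactions of the BCL2 family. Mating was done three times.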

Parent scFv Ab-95: VH joined to VL by the linker GGGGSGGGGSGGGGS. Changes lie in the light chain CDRs alone.
VH: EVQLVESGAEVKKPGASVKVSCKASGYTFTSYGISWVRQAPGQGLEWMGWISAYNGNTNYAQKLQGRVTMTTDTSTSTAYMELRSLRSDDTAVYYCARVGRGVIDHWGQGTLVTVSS
VL: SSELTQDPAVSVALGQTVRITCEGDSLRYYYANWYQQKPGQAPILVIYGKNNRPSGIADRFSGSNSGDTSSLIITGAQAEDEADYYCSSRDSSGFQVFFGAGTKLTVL

Variants are written as CDR1, CDR2 and CDR3 of the light chain (limits as in the source). Parent: EGDSLRYYYAN, GKNNRPS, SSRDSSGFQVF.
This list gathers variants with a substitution at D91 (VL, numbered from residue 1).
Values are log10 of the apparent Kd in nM; lower means stronger binding.
Replicates are averaged; those with no signal do not enter the mean.
Where no diploid with the target was found in that replicate, the entry reads "ND": below detection, most likely a poor binder, though not proof of it.
Order: sorted from the lowest average up, undetected variants last.
Three control strains display no target. For library AAYL52, 28% of the pairings with them gave a signal, with a median of 3.91 and one signal in twenty below 2.90, so weak values seen in few replicates may be background.
In this assay the parent's reference entry averaged 2.31; its copy inside this library read 2.25.

| CDR-L1 | CDR-L2 | CDR-L3 | log10 Kd, replicates | mean, log10 nM |
|---|---|---|---|---|
| EGDSLRYYGAN | GKNNRPS | SSRSSSGFQVF | 1.19 1.08 0.79 | 1.02 |
| EGDSLRYYYAN | GKNNRPD | SSRVSSGFRVF | 1.91 1.87 1.13 | 1.64 |
| EGDSLRYYQAN | GKNNRPS | SSRWSFGFQVF | 1.47 2.16 1.29 | 1.64 |
| EGDSLRYYSAN | GKNNRPS | SSRESSGFQVE | 1.76 2.24 2.23 | 2.08 |
| VGDSLRYYYAN | GKNNRES | SSRVSSGFQVF | 2.39 1.91 1.94 | 2.08 |
| QGDSLRYYYAN | GKNNRPS | SSRNWSGFQVF | 2.49 2.33 1.92 | 2.24 |
| EGDSLRYYYAN | GKNNRPS | SSRFSNHFQVF | 2.18 2.73 1.82 | 2.25 |
| EGDSLRYYYAN | GKNNRPS | SSRLRSGQQVF | 2.21 3.55 2.02 | 2.59 |
| EYGSLRYYYAN | GKNNRPS | SSRTSSGFQVF | 2.82 2.46 ND | 2.64 |
| EGDSLRYYYAN | GKNNRVS | SSRASSVFQVF | 2.53 3.25 2.52 | 2.77 |
| EGDSLRYYYSN | GKNNRPS | SSRMSLGFQVF | 2.98 3.07 2.40 | 2.81 |
| EGDSLRYYYAG | GKNNRPS | SSRLSSGFQVF | ND ND 2.91 | 2.91 |
| EGDQLRYCYAN | GKNNRPS | SSRESSGFQVF | ND 3.34 ND | 3.34 |
| IGDSLRYYYAN | GKNNRPS | SSRLKSGFQVF | ND 3.35 ND | 3.35 |
| EGDSLRYLTAN | GKNNRPS | SSRHSSGFQVF | 3.26 2.93 4.13 | 3.44 |
| EGDALRYYYAN | GKNNRPS | SSRHPSGFQVF | 3.16 3.65 3.65 | 3.48 |
| EGDSLRYYYAN | SKNNRPS | SSRRSSGCQVF | 4.01 2.97 ND | 3.49 |
| EGDSLRYYYAN | GKNNQPS | SSRKSSGRQVF | ND 3.58 ND | 3.58 |
| EGDSLRYYYAN | GKVNRPS | SSRWSSRFQVF | 4.58 2.72 ND | 3.65 |
| EGDSMRYYYAN | CKNNRPS | SSRCSSGFQVF | 3.67 ND ND | 3.67 |
| EGDSRRYYYAN | GKNVRPS | SSRLSSGFQVF | ND ND 3.79 | 3.79 |
| EGDSLRYYYAN | GKMNRPS | SSRNSSWFQVF | 3.92 3.48 4.06 | 3.82 |
| EGRSLRYYYAN | GKNNRPS | SSRKSSGFQVN | ND 3.90 ND | 3.90 |
| EGDSLRYYYEN | KKNNRPS | SSRNSSGFQVF | ND 3.91 ND | 3.91 |
| EGDSLRYWLAN | GKNNRPS | SSRESSGFQVF | 3.49 5.64 2.72 | 3.95 |
| EGDKLRYYYAN | GKNNRPS | SSRSSSGFQVF | 4.14 ND ND | 4.14 |
| EYDSLRYYYAN | GKNNRPS | SSRHSSGPQVF | 4.53 3.60 4.61 | 4.25 |
| EGDALRYYYAN | GKNNRPW | SSRMSSGFQVF | ND 4.31 ND | 4.31 |
| EGNSLRYYYAN | GKNNRPS | SSDISSGFQVF | ND 4.58 ND | 4.58 |
| ECDSLRYYYAN | GKNNRPS | SGRLSSGFQVF | ND ND ND | ND |
| EGDSLRYYRAN | GKNNRPS | SSRISSGDQVF | ND ND ND | ND |
| EGDSLRYYYAN | HKNNRPS | SSRMNSGFQVF | ND ND ND | ND |
| EGDSLRYYYAN | GKNARPS | SSPYSSGFQVF | ND ND ND | ND |
| EGDTLRYYYAN | GKNNRPS | SSRRESGFQVF | ND ND ND | ND |
| EGDSLRYYYAN | GKKNRPS | SLRLSSGFQVF | ND ND ND | ND |
| EGTSLRYYYAN | GKNNRPS | SSIASSGFQVF | ND ND ND | ND |

Again, the first 6 entries without any signal:

CDR-L1	CDR-L2	CDR-L3	log10 Kd, replicates	mean, log10 nM
ECDSLRYYYAN	GKNNRPS	SGRLSSGFQVF	ND ND ND	ND
EGDSLRYYRAN	GKNNRPS	SSRISSGDQVF	ND ND ND	ND
EGDSLRYYYAN	HKNNRPS	SSRMNSGFQVF	ND ND ND	ND
EGDSLRYYYAN	GKNARPS	SSPYSSGFQVF	ND ND ND	ND
EGDTLRYYYAN	GKNNRPS	SSRRESGFQVF	ND ND ND	ND
EGDSLRYYYAN	GKKNRPS	SLRLSSGFQVF	ND ND ND	ND